In ChEMBL document CHEMBL5120879, “Medicinal Chemistry Strategies for the Development of Bruton's Tyrosine Kinase Inhibitors against Resistance” (J Med Chem, 2022) one finds IC50 data, which are given here for one compound.

Sequences of proteins named here, by UniProt entry; tags and fusion partners are left off. Residues count along the entry.
UniProt Q06187, 2-659 C481R limits assumed: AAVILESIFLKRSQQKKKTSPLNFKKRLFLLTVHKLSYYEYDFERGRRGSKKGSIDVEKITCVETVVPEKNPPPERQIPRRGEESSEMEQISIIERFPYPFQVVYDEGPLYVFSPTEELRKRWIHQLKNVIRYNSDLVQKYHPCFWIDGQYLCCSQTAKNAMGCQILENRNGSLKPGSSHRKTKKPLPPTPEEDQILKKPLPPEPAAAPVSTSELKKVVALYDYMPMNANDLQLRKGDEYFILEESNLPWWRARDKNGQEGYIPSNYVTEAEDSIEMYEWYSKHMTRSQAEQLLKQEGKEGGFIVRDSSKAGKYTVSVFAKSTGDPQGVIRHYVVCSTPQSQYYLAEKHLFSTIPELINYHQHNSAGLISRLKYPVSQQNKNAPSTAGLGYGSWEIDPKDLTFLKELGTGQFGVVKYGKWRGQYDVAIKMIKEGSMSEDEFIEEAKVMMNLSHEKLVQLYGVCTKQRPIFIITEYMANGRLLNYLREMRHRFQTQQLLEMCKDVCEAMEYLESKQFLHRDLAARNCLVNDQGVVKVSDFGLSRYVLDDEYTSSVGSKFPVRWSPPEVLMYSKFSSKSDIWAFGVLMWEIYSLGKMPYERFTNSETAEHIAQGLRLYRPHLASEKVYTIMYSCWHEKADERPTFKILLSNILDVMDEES
UniProt Q06187, 2-659 T474M limits assumed: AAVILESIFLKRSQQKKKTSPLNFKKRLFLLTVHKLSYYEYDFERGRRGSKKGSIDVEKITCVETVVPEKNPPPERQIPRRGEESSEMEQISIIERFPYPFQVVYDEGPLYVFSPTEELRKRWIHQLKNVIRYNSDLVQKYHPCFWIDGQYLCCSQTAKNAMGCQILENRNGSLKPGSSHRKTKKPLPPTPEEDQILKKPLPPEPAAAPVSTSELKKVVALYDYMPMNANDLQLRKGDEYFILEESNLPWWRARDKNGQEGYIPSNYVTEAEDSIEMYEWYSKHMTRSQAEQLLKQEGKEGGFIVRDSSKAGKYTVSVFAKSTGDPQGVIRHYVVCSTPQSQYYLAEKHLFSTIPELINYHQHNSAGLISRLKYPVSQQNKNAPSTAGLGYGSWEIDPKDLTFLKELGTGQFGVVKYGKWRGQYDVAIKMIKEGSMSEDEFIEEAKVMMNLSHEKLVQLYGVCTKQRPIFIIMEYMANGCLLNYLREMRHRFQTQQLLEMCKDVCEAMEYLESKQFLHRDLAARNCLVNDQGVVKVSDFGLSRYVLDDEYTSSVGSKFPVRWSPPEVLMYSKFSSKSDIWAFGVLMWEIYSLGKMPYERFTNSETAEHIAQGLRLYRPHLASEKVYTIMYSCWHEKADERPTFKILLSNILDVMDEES
UniProt Q06187, 2-659 T474I limits assumed: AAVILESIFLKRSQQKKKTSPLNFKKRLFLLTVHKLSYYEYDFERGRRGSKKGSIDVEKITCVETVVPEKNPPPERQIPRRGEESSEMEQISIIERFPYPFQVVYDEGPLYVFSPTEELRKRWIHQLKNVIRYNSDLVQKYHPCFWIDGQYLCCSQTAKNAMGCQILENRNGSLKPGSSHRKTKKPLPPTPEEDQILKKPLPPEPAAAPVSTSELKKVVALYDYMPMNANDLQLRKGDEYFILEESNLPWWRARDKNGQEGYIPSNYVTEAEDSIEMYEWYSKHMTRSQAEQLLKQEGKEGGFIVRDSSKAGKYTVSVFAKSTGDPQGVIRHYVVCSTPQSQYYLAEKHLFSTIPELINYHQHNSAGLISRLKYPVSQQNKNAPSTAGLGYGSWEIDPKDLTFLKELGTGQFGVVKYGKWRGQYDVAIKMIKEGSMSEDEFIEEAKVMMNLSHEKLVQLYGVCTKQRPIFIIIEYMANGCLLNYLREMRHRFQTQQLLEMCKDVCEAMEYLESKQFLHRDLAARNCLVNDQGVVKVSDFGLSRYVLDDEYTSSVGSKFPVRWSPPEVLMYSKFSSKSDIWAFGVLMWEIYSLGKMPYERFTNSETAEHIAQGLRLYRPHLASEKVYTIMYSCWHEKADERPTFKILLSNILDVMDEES
UniProt Q06187, 2-659 C481S limits assumed: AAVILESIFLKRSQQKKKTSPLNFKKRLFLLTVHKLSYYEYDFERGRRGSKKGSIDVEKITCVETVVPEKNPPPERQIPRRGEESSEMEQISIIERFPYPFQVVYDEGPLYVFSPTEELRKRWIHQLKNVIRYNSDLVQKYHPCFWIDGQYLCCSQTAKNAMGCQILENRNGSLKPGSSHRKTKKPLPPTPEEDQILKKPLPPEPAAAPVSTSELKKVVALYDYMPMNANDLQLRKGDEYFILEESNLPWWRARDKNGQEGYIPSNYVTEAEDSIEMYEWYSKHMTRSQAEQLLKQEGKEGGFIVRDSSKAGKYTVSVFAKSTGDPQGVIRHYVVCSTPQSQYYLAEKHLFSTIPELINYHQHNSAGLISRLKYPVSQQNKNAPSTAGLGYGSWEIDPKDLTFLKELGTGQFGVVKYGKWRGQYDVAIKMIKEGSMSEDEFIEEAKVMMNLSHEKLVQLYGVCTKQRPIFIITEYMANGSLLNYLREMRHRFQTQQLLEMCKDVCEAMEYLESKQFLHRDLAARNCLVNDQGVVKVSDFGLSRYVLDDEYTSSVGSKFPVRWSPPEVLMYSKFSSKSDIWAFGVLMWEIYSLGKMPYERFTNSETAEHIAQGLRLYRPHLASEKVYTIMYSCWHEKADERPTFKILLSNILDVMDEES

SMILES strings stand for the structures.

Assay [1] deals with Tyrosine-protein kinase BTK (Homo sapiens, UniProt Q06187, C481R). Kind of assay: biochemical.
In assay [2] the target is Tyrosine-protein kinase BTK (Homo sapiens, UniProt Q06187). Kind of assay: Inhibition of His-tagged full-length recombinant wild-type human BTK (Ala2 to Ser659 residues) expressed in baculovirus infected insect cells incubated for 30 mins in presence of ATP by Microfluidic chip based mobility shift assay.
The target in assay [3] is Tyrosine-protein kinase BTK (Homo sapiens, UniProt Q06187, T474M). The assay can be described thus: Inhibition of BTK T474M mutant (unknown origin) expressed in baculovirus infected Trichoplusia ni pro cells incubated for 30 mins in presence of ATP by Microfluidic chip based mobility shift assay. More on the design: species or system Tni PRO.
The target in assay [4] is Tyrosine-protein kinase BTK (Homo sapiens, UniProt Q06187, T474I). The assay can be described thus: biochemical.
In assay [5] the target is Tyrosine-protein kinase BTK (Homo sapiens, UniProt Q06187, C481S). The assay can be described thus: Inhibition of BTK C481S mutant (unknown origin) expressed in baculovirus infected Sf9 insect cells incubated for 30 mins in presence of ATP by Microfluidic chip based mobility shift assay.

For the compound `C=CC(=O)Nc1cccc(Nc2nc(Nc3ccc(OCCOC)cc3)ncc2F)c1` [SPEBRUTINIB], the half-maximal inhibitory concentration (IC50) came to 854 nM in assay [1]; 22 nM in assay [2]; 75 nM in assay [3]; 48 nM in assay [4]; 908 nM in assay [5].

As a reminder, the IC50 is the concentration that inhibits the measured activity by half.
